Experimental findings from ChEMBL document CHEMBL4376859, “Prodrugs for nitroreductase-based cancer therapy-3: Antitumor activity of the novel dinitroaniline prodrugs/Ssap-NtrB enzyme suicide gene system: Synthesis, in vitro and in silico evaluation in prostate cancer” (Eur J Med Chem, 2020) are described below.

Activity calls are given as the source filed them. No cut-off for these calls is given here.

For the test, the system named is PC-3. Nature of the test: Cytotoxicity against human PC3 cells assessed as reduction in cell viability after 48 hrs by SRB assay. Type of test: functional, cell-based. Put shortly: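 Compounds were reduced outside the cells by purified His-tag (Ni column) Ssap-NtrB. The reaction mix held 600 µM NADH and compound (150, 39, 9 µM, or 180, 18, 1.8 nM) and was applied to PC-3 cells. Controls were compound alone in 25 mM Tris/HCl pH 7.5, and enzyme alone at 31 µg/mL. After 48 h, SRB absorbance was read at 492 nm and converted to % viability.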
(In general: Sulforhodamine B stains cellular protein and so reports cell mass.)
Consider `O=[N+]([O-])c1ccc(NCCCCNc2ccc([N+](=O)[O-])cc2[N+](=O)[O-])c([N+](=O)[O-])c1`, for which the result was inactive.

Take `O=[N+]([O-])c1ccc(NC2CCCC(Nc3ccc([N+](=O)[O-])cc3[N+](=O)[O-])C2)c([N+](=O)[O-])c1` (configuration not stated): the outcome was inactive. The same measure for `O=[N+]([O-])c1ccc(Nc2ccc([N+](=O)[O-])cc2[N+](=O)[O-])c(Nc2ccc([N+](=O)[O-])cc2[N+](=O)[O-])c1`: “inactive”; for `O=[N+]([O-])c1ccc(NCCNc2ccc([N+](=O)[O-])cc2[N+](=O)[O-])c([N+](=O)[O-])c1`: “inactive”.

Take `O=[N+]([O-])c1ccc(N2CCN(c3ccc([N+](=O)[O-])cc3[N+](=O)[O-])CC2)c([N+](=O)[O-])c1`: the result was inactive. Regarding `O=[N+]([O-])c1ccc(NC2CCC(Nc3ccc([N+](=O)[O-])cc3[N+](=O)[O-])CC2)c([N+](=O)[O-])c1` (configuration not stated), the result was inactive. The same measure for `O=[N+]([O-])c1ccc(Nc2ccc([N+](=O)[O-])cc2[N+](=O)[O-])cc1`: “inactive”; for `O=[N+]([O-])c1ccc(Nc2cccc(Nc3ccc([N+](=O)[O-])cc3[N+](=O)[O-])c2)c([N+](=O)[O-])c1`: “inactive”; for `O=[N+]([O-])c1ccc(NC2CCCCC2Nc2ccc([N+](=O)[O-])cc2[N+](=O)[O-])c([N+](=O)[O-])c1` (configuration not stated): “inactive”. `O=[N+]([O-])c1ccc(Nc2ccc(Nc3ccc([N+](=O)[O-])cc3[N+](=O)[O-])cc2)c([N+](=O)[O-])c1`: the outcome was inactive. On to `O=[N+]([O-])c1cccc(Nc2ccc([N+](=O)[O-])cc2[N+](=O)[O-])c1`, for which the outcome was inactive.

As to `Nc1ccc(Nc2ccc([N+](=O)[O-])cc2[N+](=O)[O-])c([N+](=O)[O-])c1`, the result was inactive.
